Measured affinities in a library of Ab-95 light chain variants

Values reported by Engelhart et al. 2022, doi:10.1038/s41597-022-01779-4 (FLAb copy).

Binding partner: SARS-CoV-2 spike HR2 peptide, sequence PDVDLGDISGINAS.

The variants keep the heavy chain, the linker and the frameworks of Ab-95 (scFv order VH, a (GGGGS)3 linker, VL).
VH: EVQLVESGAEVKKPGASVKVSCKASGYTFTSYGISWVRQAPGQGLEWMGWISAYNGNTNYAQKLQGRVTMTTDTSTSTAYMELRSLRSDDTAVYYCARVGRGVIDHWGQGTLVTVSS
VL: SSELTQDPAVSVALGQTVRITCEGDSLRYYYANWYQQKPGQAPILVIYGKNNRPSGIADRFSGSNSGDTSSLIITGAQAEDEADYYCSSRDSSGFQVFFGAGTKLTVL

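Phage display of a naive human antibody library on the peptide gave the parent. The library (AAYL52) carries one to three amino acid substitutions per variant, with no insertions or deletions. In AlphaSeq, yeast of one mating type display the scFv and yeast of the other type display the target. After mating in shaken culture at 30 °C for 16 h, diploids were selected and their barcode pairs sequenced. A regression on co-assayed BCL2-family reference pairs converts the normalised counts of each replicate to an apparent Kd. Mating was done three times.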

Each variant is given by its three light chain CDRs, as the data file delimits them; those of the parent are EGDSLRYYYAN, GKNNRPS, SSRDSSGFQVF. All variants listed here change N52 of the VL, counted from its first residue. The Kd shown is the geometric mean over detected replicates; a lower Kd is a better binder. A pair that was not seen in any replicate is written "no signal"; this usually means weak binding, but a binder can also be missed. Nonspecific signal, from three strains lacking the peptide, appeared in 28% of pairings of library AAYL52, centred on 8.2 µM (5% of these signals below 800 nM); values are not corrected for it. For reference, the parent read 200 nM as the reference entry and 180 nM as a member of this library.

With EGQSLRYYYAN / GKNFRPS / SSRDSSGFLVF the result was 610 nM (3 of 3 replicates). For EGDSLRYYYAN / PKNPRPS / SSRDSSLFQVF, the assay gave no signal (0 of 3 replicates). Variant EGQSLRYYYAN / GKNKRPS / SSRDSSGIQVF showed 1.7 µM (3 of 3 replicates). Variant GGDSLRYYYAN / GKNYRSS / SSRDSSGFQVF showed 190 nM (3 of 3 replicates). Variant EGDSLRYYYAQ / GKNSRPS / WSRDSSGFQVF showed no signal (0 of 3 replicates). For NGDSLRYYYAN / GKNQRMS / SSRDSSGFQVF, the assay gave 32 nM (3 of 3 replicates).

Variant EGDWLRYNYAN / GKNARPS / SSRDSSGFQVF showed 12 nM (3 of 3 replicates). Variant EVDSLRYYYAN / GKNLRPS / SSRPSSGFQVF showed 1.4 µM (3 of 3 replicates). Variant EGDSLRYYYAN / GKNFRPS / SSDDSSGFQFF showed 3.3 µM (3 of 3 replicates). For EGDSLRYYYAN / GKNPRSS / SSRDSSGFQWF, the assay gave 310 µM (2 of 3 replicates). For SGDSLRYYYAN / GKNSCPS / SSRDSSGFQVF, the assay gave 2.4 µM (3 of 3 replicates). Variant EGDSLRYYYAN / GKNLRPS / SHLDSSGFQVF gave 4.3 µM (1 of 3 replicates).

Variant EGDTLRYYYAN / GKNPRPS / SSRDSGGFQVF gave no signal (0 of 3 replicates). With EGDSLRYYYAN / GKNGRPS / SSRDSSCTQVF the result was 620 nM (3 of 3 replicates). For EGDSLRYYYAN / GKNVRRS / STRDSSGFQVF, the assay gave 570 nM (1 of 3 replicates). Variant EGDSLDVYYAN / GKNRRPS / SSRDSSGFQVF showed 1.0 µM (3 of 3 replicates). Variant EGDKLRYYYAN / GKNCRPS / STRDSSGFQVF showed 33 µM (2 of 3 replicates). For EGDSLRYDYHN / GKNPRPS / SSRDSSGFQVF, the assay gave 6.2 µM (1 of 3 replicates).

With EGDSLRYYYAN / GKNMRPY / SSRDSSGFQVF the result was 190 nM (3 of 3 replicates). With EGDSLRYYYAN / GKNVRPW / SSRDSKGFQVF the result was 260 nM (2 of 3 replicates). Variant EGDSLRYYYAN / GKNLRPS / SSCDSSGFQVF gave 8.4 µM (2 of 3 replicates). For EGQSLRYYYAN / GKNQRPS / SSRDSSGFEVF, the assay gave no signal (0 of 3 replicates). Variant EGDSLRYYYAN / GKMFRPS / SPRDSSGFQVF gave 8.1 µM (2 of 3 replicates). Variant EGDSLRYYYAN / GKNYRPA / SSRNSSGFQVF gave 3.3 µM (1 of 3 replicates).

Variant EGDSLRYYYAN / GKNMRPD / SSRSSSGFQVF showed 37 nM (3 of 3 replicates). Variant EGDSTRYYYAN / GKNLRPS / SSRDRSGFQVF showed 210 nM (3 of 3 replicates). For EGDSLRYYYAN / GKNIRPS / SARDSSGFYVF, the assay gave no signal (0 of 3 replicates). For EGDSKRYYYAN / GKNLRPS / SSRDSSGFQGF, the assay gave 21 µM (1 of 3 replicates). Variant EGDSLRYYAAN / GKNCRPS / SSRDSPGFQVF showed 7.0 µM (3 of 3 replicates). For EGDSLRYYYAN / GKNGRPS / SFRDSSGFQVF, the assay gave no signal (0 of 3 replicates).

Variant EGDSLRYYYAN / GKNFRPS / SSRDSSGFQVF gave 270 nM (3 of 3 replicates). With EVDSLRLYYAN / GKNPRPS / SSRDSSGFQVF the result was 3.2 µM (2 of 3 replicates). Variant EGDSLRYYYAN / NKNPRPS / SSRDKSGFQVF gave 9.6 µM (1 of 3 replicates). Variant EGDSLRYYYAN / GKKYRPS / SSRDSSGFQVQ showed 48 µM (1 of 3 replicates). Variant EGDSLRYYYAN / GRNSRPS / SSRDSSDFQVF showed 6.5 µM (1 of 3 replicates). Variant EGDSLRYYYAN / GKNLRPS / SSRDWSGFQVF gave 68 nM (3 of 3 replicates).

Variant EGDSLHYYYAN / GFNFRPS / SSRDSSGFQVF gave 17 µM (2 of 3 replicates). For EGDSQRYYYAN / KKNGRPS / SSRDSSGFQVF, the assay gave 11 µM (2 of 3 replicates). Variant EGDVLRYYYAN / GKPWRPS / SSRDSSGFQVF gave 11 µM (2 of 3 replicates). For EGDSLRYYYAN / GKNVRPT / SWRDSSGFQVF, the assay gave 1.7 µM (2 of 3 replicates). Variant TGDSLRYYYAN / GKNPRPS / SSRDSSGRQVF showed 200 nM (3 of 3 replicates). For EGKSLEYYYAN / GKNFRPS / SSRDSSGFQVF, the assay gave 370 nM (3 of 3 replicates).

Variant EGDDLRYYYAN / GKNIRPS / SSRDSSGFQVF gave 970 nM (3 of 3 replicates). For EGNSLRYYYAN / GKNPRPS / SSRDSSGQQVF, the assay gave no signal (0 of 3 replicates).

For reference, 6 entries of the list once more:

CDR-L1,CDR-L2,CDR-L3,Kd (apparent),replicates with signal
EGDSLHYYYAN,GFNFRPS,SSRDSSGFQVF,17 µM,2 of 3
EGDSLRYYYAN,PKNPRPS,SSRDSSLFQVF,no signal,0 of 3
EGDSLRYYYAN,NKNPRPS,SSRDKSGFQVF,9.6 µM,1 of 3
EGDSLRYYYAN,GKNVRPW,SSRDSKGFQVF,260 nM,2 of 3
EGDSTRYYYAN,GKNLRPS,SSRDRSGFQVF,210 nM,3 of 3
EGDSLRYDYHN,GKNPRPS,SSRDSSGFQVF,6.2 µM,1 of 3